The chains behind the UniProt entries cited, without tags or fusion partners.
UniProt Q8C6L5, whole entry: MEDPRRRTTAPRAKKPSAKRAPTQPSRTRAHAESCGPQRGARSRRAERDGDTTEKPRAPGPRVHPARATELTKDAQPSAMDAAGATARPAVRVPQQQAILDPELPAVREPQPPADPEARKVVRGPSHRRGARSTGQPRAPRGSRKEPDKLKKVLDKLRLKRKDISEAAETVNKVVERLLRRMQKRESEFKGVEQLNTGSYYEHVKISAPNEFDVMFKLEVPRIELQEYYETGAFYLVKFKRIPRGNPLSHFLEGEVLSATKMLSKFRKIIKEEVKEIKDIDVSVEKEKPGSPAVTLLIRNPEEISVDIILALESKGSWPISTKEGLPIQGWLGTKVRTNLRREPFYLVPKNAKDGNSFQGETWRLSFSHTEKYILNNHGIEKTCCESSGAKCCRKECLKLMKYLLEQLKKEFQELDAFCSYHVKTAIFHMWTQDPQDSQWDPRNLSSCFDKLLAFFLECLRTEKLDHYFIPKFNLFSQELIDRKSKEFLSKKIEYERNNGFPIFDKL

Where “and” joins values, the source holds several entries; their conditions need not be identical. Equal entries are not always repeated. Only a part is listed here, and it is no random draw. Calls of active or inactive are those of the source.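 How the source made its calls: active means inhibition of cGAS enzyme activity at or above 60%; inactive means the rest.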
The compounds below were run against Cyclic GMP-AMP synthase (Mus musculus) (UniProt Q8C6L5) (assay: inhibitors of Mus musculus cyclic GMP-AMP synthase, initial high-throughput assay, cell-free, RapidFire MS (AID 1259397;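 further: enzyme stimulated by 45 bp dsDNA with ATP and GTP substrates; cGAMP share of summed cGAMP plus half ATP and half GTP signals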)). Conditions: recombinant mouse cGAS, cGAMP by RapidFire MS; at 12.5 µM; active compounds read high.
In the case of Cc1ccc(N(C(=O)c2ccco2)C2CCNCC2)cc1F, the inhibition is reported as inactive: 0.341%. COc1ccc(N(C(=O)CC(C)C)C2CCNCC2)cc1 was tested, and the inhibition was inactive: -5.34%. With CCc1ccc(N(C(=O)c2cccc(C)c2)C2CCNCC2)cc1 the inhibition was inactive: -5.95%. With O=C(NCC1(N2CCOCC2)CCCCC1)c1ccc(OCC(F)(F)F)nc1 the inhibition was inactive: -3.7%. With O=c1[nH]c2ccccc2n1C1CCN(Cc2cccc(F)c2F)CC1 the inhibition was inactive: 1.94%. With O=C(NCC1(N2CCCCC2)CCCCC1)c1ccc2c(c1)OCO2 the inhibition was inactive: -6.99%. In the case of O=C(NCC1(N2CCOCC2)CCCCC1)c1ccc2c3c(cccc13)CC2, the inhibition is reported as inactive: -1.92%. O=C(NCC1(N2CCCCC2)CCCCC1)c1cc2c(s1)CCC2 was tested, and the inhibition was inactive: 3.22%. For COCC(=O)N(c1cccc(C)c1)C1CCNCC1, the inhibition was inactive: -4.97%. For COc1cc(NC2CCNCC2)cc(OC)c1, the inhibition was inactive: 7.69%. For CCOC(OCC)P(=S)(OCC)OCC, the inhibition was inactive: -12.6%. In the case of Cc1cc(=O)[nH]c(C(C)N2CCC(Nc3ccccc3)CC2)n1 (centres undefined), the inhibition is reported as inactive: -7.14% and inactive: -13.3%. Cc1nc([N+](=O)[O-])cn1CCC(=O)N[C@@H]1CCCC[C@H]1N1CCOCC1 was tested, and the inhibition was inactive: -13.4%. With O=C(NCC1(N2CCCCC2)CCCCC1)c1cccs1 the inhibition was inactive: 2.69%. With c1ccc(NC2CCN(CCc3ccncc3)CC2)cc1 the inhibition was inactive: 0.704%. In the case of COc1cccc(N(C(=O)c2cccc(Cl)c2)C2CCNCC2)c1, the inhibition is reported as inactive: 0.211%. For CC(C)(C)OC(=O)N1CCC(Nc2ccccc2)(C(=O)N2CCC2)CC1, the inhibition was inactive: -0.863%. For O=C(NCC1(N2CCOCC2)CCCCC1)c1ccc(Br)o1, the inhibition was inactive: -9.6%. Cc1ccc(C(C)CCN(CCCl)CCCl)cc1 (centres undefined) was tested, and the inhibition was inactive: -3.66%.
